{"source": "paper PMC9669179", "about": "(Epilepsia, 2022)", "settings": "CF-1, mouse, in vivo", "data": [{"compound": "CCCC(CCC)C(=O)O", "note": "[VPA, sodium valproate]", "values": [{"measurement": "Plasma Dose Prop (AUC)", "value": 1.48}]}]}
